{"sequences": {"note": "Protein sequences, listed by entry. Tags and fused reporters are not part of them.", "UniProt P40818, whole entry": "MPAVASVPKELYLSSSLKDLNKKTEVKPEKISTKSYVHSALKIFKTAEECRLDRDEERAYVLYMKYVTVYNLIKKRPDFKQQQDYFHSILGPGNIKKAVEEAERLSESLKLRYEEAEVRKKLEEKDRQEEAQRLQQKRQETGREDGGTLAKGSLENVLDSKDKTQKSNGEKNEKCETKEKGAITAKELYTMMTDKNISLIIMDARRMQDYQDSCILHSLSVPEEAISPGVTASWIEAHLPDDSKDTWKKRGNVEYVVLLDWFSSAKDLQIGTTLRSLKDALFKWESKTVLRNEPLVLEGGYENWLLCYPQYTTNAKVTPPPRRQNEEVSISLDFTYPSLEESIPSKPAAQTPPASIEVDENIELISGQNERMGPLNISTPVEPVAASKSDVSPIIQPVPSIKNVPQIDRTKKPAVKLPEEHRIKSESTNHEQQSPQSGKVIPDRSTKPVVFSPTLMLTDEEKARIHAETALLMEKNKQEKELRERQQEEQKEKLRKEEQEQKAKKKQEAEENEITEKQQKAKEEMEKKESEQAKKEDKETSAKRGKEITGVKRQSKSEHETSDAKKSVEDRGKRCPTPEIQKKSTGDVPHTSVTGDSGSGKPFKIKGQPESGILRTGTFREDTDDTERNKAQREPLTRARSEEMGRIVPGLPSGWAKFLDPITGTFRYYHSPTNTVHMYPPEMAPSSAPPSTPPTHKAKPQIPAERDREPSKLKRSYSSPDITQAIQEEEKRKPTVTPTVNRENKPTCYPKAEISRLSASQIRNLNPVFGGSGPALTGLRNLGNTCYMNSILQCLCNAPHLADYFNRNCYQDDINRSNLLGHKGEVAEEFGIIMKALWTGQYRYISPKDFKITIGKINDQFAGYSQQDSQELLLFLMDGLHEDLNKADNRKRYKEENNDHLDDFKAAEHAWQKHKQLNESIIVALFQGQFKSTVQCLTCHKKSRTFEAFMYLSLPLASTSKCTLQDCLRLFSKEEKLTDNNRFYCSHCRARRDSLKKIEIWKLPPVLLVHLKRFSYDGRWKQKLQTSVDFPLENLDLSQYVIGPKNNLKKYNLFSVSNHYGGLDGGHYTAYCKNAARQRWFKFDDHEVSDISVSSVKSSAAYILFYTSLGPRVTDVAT"}, "source": "PubChem BioAssay AID1645853", "about": "(Buhrlage Lab, Dana-Farber Cancer Institute and Novartis …, 2021)", "note": "This is a selection; strong and weak results do not stand in their true shares. Calls of active or inactive are those of the source. Rule as the data show it: active = inhibition above about 30%; inactive = the rest."}
{"target": "Ubiquitin carboxyl-terminal hydrolase 8 (Homo sapiens) (UniProt P40818)", "experiment": "blocks human USP8 ubiquitin-rhodamine cleavage (AID 1645853)", "settings": "purified USP8, Ub-rhodamine cleavage fluorescence, 30 min; at 20 µM; hits give high values"}
{"compound": "O=C(NCC1(N2CCCCC2)CCCCC1)c1ccc(F)cc1", "inhibition": "inactive: -28.8%"}
{"compound": "CC1CN(CCc2ccccc2)CCC1=O", "note": "(stereo not drawn)", "inhibition": "inactive: 2.04%"}
{"compound": "Cc1ccccc1C(=O)NCC1(N2CCOCC2)CCCCC1", "inhibition": "inactive: -0.205%"}
{"compound": "O=C(NCC1(N2CCCCC2)CCCCC1)c1ccc2ncsc2c1", "inhibition": "inactive: 0.789%"}
{"compound": "Cc1cc(C(=O)NCC2(N3CCOCC3)CCCCC2)c2ccccc2n1", "inhibition": "inactive: 17.4%"}
{"compound": "O=C(NCC1(N2CCOCC2)CCCCC1)c1ccccc1Cl", "inhibition": "inactive: -8.24%"}
{"compound": "N#Cc1ccc(C(=O)NCC2(N3CCCCC3)CCCCC2)cc1", "inhibition": "inactive: 0.00568%"}
{"compound": "CN(C)c1ccc(C(=O)NCC2(N3CCCCC3)CCCCC2)cc1", "inhibition": "inactive: 5.04%"}
